Holding throughout (type): binding
The target in one experiment is Bcl-2 Asp103Tyr mutant (Homo sapiens, UniProt P10415, D103Y). The experiment can be described thus: Fluorescence quenching assay (PUMA quench reagent displacement), Example 4. Conditions: 50 nM peptide, about 2 hours at 18° C., ABT-199 inactive @1 μM, read-out: Bel-2 Asp103Tyr mutant K1 mean. An excerpt: (§1) […] […] […] […] […] […] […] […] […] […] […] […] […] […] […] […] […] […] […] […] […] […] […] […] […] […] […]

Experiment [1] concerns the target T1, Bcl-2 Gly101Val mutant (Homo sapiens, UniProt P10415, G101V). The description is as above. As to conditions: 100 nM peptide, about 2 hours at 18° C., cKi for Compound A and B, eKi (estimated) for ABT-199 in most cases, read-out: Bel-2 Gly101Val mutant K1 mean.
Excerpt: as §1

The next experiment concerns the target Bcl-2 Ala113Gly mutant (Homo sapiens, UniProt P10415, A113G). The description is as above. As to conditions: read-out: Bel-2 Ala113Gly Mutant K1 mean.
Excerpt: as §1

A further experiment has as its target Bcl-2 Asp103Val mutant (Homo sapiens, UniProt P10415, D103V). The description is as above. Conditions: 50 nM peptide, about 2 hours at 18° C., cKi for Compound A and B, eKi (estimated) for ABT-199 in most cases, read-out: Bel-2 Asp103Val mutant K1 mean.
Excerpt: as §1

Another experiment has as its target Bcl-2 Arg129Leu mutant (Homo sapiens, UniProt P10415, R129L). Described as above. As to conditions: read-out: Bel-2 Arg129Leu mutant K1 mean.
Excerpt: as §1

A further experiment addresses Bcl-2 Asp103Glu mutant (Homo sapiens, UniProt P10415, D103E). Described as above. As to conditions: 50 nM peptide, about 2 hours at 18° C., cKi for Compound A and B, eKi (estimated) for ABT-199 in most cases, read-out: Bel-2 Asp103Glu mutant K1 mean.
Excerpt: as §1

The target in experiment [2] is T1, Bcl-2 Gly101Val mutant. The experiment can be described thus: Fluorescence quenching assay (PUMA peptide displacement), Example 1. As to conditions: 1 nM protein, 100 nM PUMA peptide, 2 hours at room temperature, read-out: Bcl-2 Gly101Val mutant cKi mean. Here is the method:
(§2) An 11-point serial dilution of each compound was prepared in DMSO, the final buffer conditions were 10 mM 4-(2-hydroxyethyl)-1-piperazineethanesulfonic acid [HEPES], 150 mM NaCl, 0.05% Tween 20, pH 7.4 and 5% DMSO.

Another experiment deals with Bcl-2 wild-type protein (Homo sapiens, UniProt P10415). Described as above. Conditions: 1 nM protein, 50 nM PUMA peptide, 2 hours at room temperature, read-out: Bcl-2 wild-type cKi mean. How it is done: as §2

For `O=C(c1cc(-c2cc3c(cc2C(=O)N2Cc4ccccc4C[C@H]2CN2CCOCC2)OCO3)n2c1CCCC2)N(c1ccccc1)c1ccc(O)cc1` [Compound A, N-(4-hydroxyphenyl)-3-{6-[((3S)-3-(4-morpholinylmethyl)-3,4-dihydro-2(1H)-isoquinolinyl)carbonyl]-1,3-benzodioxol-5-yl}-N-phenyl-5,6,7,8-tetrahydro-1-indolizine carboxamide], the Ki is 5.6 nM on Bcl-2 Asp103Tyr mutant; 23 nM on Bcl-2 Gly101Val mutant [1]; 7.5 nM at Bcl-2 Ala113Gly mutant; 3.7 nM on Bcl-2 Asp103Val mutant; 3.3 nM at Bcl-2 Arg129Leu mutant; 2.3 nM at Bcl-2 Asp103Glu mutant. For the same compound, the Ki at Bcl-2 Gly101Val mutant [2] was found to be 23.7 nM; on Bcl-2 wild-type protein, 1.2 nM.

The values are drawn from patent publication US20220211718A1, “BCL-2 INHIBITORS FOR USE IN THE TREATMENT OF A BCL-2 MEDIATED CANCER CARRYING THE GLY101VAL MUTATION” (LES LABORATOIRES SERVIER, priority 2019, published 2022).
